Source: ChEMBL document CHEMBL1151785, “Oleanolic acid and its derivatives: new inhibitor of protein tyrosine phosphatase 1B with cellular activities” (Bioorg Med Chem, 2008)

Molecular target: T1, Tyrosine-protein phosphatase non-receptor type 1 (Homo sapiens, UniProt P18031)
T1 sequence (P18031 whole entry): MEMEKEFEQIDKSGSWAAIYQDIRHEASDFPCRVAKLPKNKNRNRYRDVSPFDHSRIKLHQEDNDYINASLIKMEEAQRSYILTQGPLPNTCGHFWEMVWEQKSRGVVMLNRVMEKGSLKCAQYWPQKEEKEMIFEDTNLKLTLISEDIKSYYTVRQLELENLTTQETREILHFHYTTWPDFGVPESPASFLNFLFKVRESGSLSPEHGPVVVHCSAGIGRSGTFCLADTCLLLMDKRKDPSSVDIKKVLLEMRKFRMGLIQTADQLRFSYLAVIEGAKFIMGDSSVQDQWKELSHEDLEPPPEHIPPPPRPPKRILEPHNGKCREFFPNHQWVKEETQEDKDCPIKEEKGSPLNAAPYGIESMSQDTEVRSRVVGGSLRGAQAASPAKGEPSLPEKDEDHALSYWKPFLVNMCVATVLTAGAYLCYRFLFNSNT
Experiment: Inhibition of PTP1B by pNPP assay

IC50: > 20 µM
SMILES: CC1(C)[C@@H](O)CC[C@]2(C)[C@H]3C(=O)C=C4[C@@H]5C[C@@](C)(C(=O)O)CC[C@]5(C)CC[C@@]4(C)[C@]3(C)CC[C@@H]12 [ENOXOLONE]
